{"source": "paper PMC11357160", "about": "“Gouregine, an α-Gem-Dimethyltetradehydrocularine Alkaloid, and Other Aporphinoid Alkaloids from the Bark of Guatteria olivacea (Annonaceae) and Their In Vitro Cytotoxic Activities” (Molecules, 2024)", "test_system": "KG-1a (human myeloid leukemia)", "experiment": "Alamar blue cytotoxicity assay, 72 h, KG-1a", "assay_type": "cell-based", "settings": "SI = IC50 [noncancerous cells MRC-5]/IC50 [KG-1a]", "experimental": "The in vitro cytotoxic activities of the isolated compounds 1–9 were evaluated against the cancer cell lines HepG2 (human hepatocellular carcinoma), KG-1a (human myeloid leukemia), and HCT116 (human colon carcinoma), and the noncancerous cell line MRC-5 (human lung fibroblast) via the Alamar blue assay after 72 h of incubation.\nThe HepG2 (human hepatocellular carcinoma), KG-1a (human myeloid leukemia), HCT116 (human colon carcinoma), and MRC-5 (human lung fibroblast) cell lines were obtained from the American Type Culture Collection (ATCC, Manassas, VA, USA) and were cultured as recommended by the American Type Culture Collection (ATCC) animal culture guide. All the cell lines were tested for mycoplasma via a mycoplasma stain kit (Sigma-Aldrich) to validate the use of cells that were free from contamination.\nFor the cytotoxicity assay, cell viability was quantified via the Alamar blue method, as previously described. For all the experiments, the cells were plated in 96-well plates. The chemical constituents evaluated varied in purity between 90% and 99.8%, which was determined on the basis of the relative integrals of the signals of the constituents in relation to the signals of the impurities contained. […] The absorbances at 570 nm and 600 nm were measured via a SpectraMax 190 Microplate Reader (Molecular Devices, Sunnyvale, CA, USA). […]", "note": "Structures can show the parent of a compound that is named as a salt.", "data": [{"smiles": "COc1cccc2c1C(=O)c1c(O)c3c(c(O)c1C2=O)C[C@@](O)(C(=O)CO)C[C@@H]3O[C@H]1C[C@H](N)[C@H](O)[C@H](C)O1", "note": "[Doxorubicin, doxorubicin hydrochloride, reference compound]", "values": [{"measurement": "Selectivity index (SI)", "result": 6.45}]}]}
